The list shows a part of the results, in another mix than the full data. The source made the active and inactive calls.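 Rule for the calls: active = fluorescence ratio above 2.44, which is 1 plus 3 SD of all ratios; inconclusive = signal too bright to measure linearly, ratio around 10 or more; inactive = fluorescence ratio below 2.44.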
assay: compound autofluorescence on Jurkat cells, primary screen, artefact control for VLA-4 allosteric ligand project, cell-based, flow cytometry (AID 576); conditions: hits give high values, 1 = vehicle-only cell background;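 note: green fluorescence of cells measured with 488 nm excitation and 530 nm emission; tested at 10 µM compound in the well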

| Compound | fluorescence ratio |
| --- | --- |
| N#CC1(Nc2ccccc2)CCN(CCc2ccccc2)CC1 | inactive: 1.03 |
| Fc1ccccc1NC1CCN(Cc2ccccc2)CC1 | inactive: 0.92 |
